# Experimental data as given in article PMC2199305 (Environmental Health Perspectives, 2007).
# Chains of the proteins cited; added tags and fusions are not shown. Residues count along the entry.
# UniProt P62508, 233-457 limits assumed: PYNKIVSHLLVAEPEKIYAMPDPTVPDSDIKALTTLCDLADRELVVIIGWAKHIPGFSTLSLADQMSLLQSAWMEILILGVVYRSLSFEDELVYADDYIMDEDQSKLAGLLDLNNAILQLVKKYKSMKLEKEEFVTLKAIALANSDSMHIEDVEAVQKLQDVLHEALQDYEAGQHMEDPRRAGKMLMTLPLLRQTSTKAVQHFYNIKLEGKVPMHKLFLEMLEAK
# Target: recombinant human ERR-γ –LBD (GST-ERR-γ –LBD) (Homo sapiens, UniProt P62508)
# Test: Saturation binding assay of [3H]BPA with Scatchard plot analysis
# Conditions: tested as the radiolabelled form
compound,measurement,setting,value
"CC(C)(c1ccc(O)cc1)c1ccc(O)cc1 [BPA, 2,2-bis(4-hydroxyphenyl)propane]",receptor density (Bmax),Scatchard plot of [3H]BPA saturation binding,14.4 nmol/mg protein
same,Specific binding to ERR-γ,nonspecific binding determined with 10 μM unlabeled BPA,approximately 80%
